Experimental findings from PubChem BioAssay (NCI) are described below.

Only a part is listed here, and it is no random draw.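 Interpretation: 100, growth as untreated; towards 0, rising growth inhibition; 0, no net growth; 0 to -100, cell death. Compounds scoring below 10 were considered active.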 Calls of active or inactive are those of the source.

Experiment in all cases: NCI-60 one-dose screen, 48 h (100 = growth as untreated, 0 = no growth, -100 = all killed)
Common to all, as to conditions: 10 µM unless noted

For assay [1], the system named is SK-MEL-2 melanoma.
Assay [2] deals with SN12C renal.
Assay [3] concerns UO-31 renal.
Assay [4] relates to TK-10 renal.
In assay [5] the test system is ACHN renal.
Assay [6] deals with CAKI-1 renal.
For assay [7], the system named is A498 renal.
The subject of assay [8] is HL-60(TB) leukemia.
Assay [9] relates to MOLT-4 leukemia.
In assay [10] the test system is SR leukemia.
The test system of assay [11] is RPMI-8226 leukemia.
Assay [12] relates to OVCAR-8 ovarian.
In assay [13] the test system is OVCAR-5 ovarian.
The subject of assay [14] is OVCAR-4 ovarian.
Assay [15] has as its system SK-OV-3 ovarian.
For assay [16], the system named is IGROV1 ovarian.
Assay [17] has as its system OVCAR-3 ovarian.
Assay [18] relates to CCRF-CEM leukemia.
Assay [19] relates to HS 578T breast.

Consider `CCP(Cl)(Cl)(Cl)CC`, for which the growth in assay [1] was inactive: 89.8%; in assay [2] it was inactive: 94.1%; in [3] it was inactive: 72.1%; in assay [4], inactive: 99.5%; in assay [5], inactive: 90.3%; in assay [6], inactive: 88.9%. Also, the growth is inactive: 103% in assay [7]; inactive: 85.9% in assay [8]; inactive: 94.5% in [9]; inactive: 86.3% in [10]; inactive: 95.9% in [11]; inactive: 97.1% in assay [12]. For the same molecule, the growth is inactive: 96.5% in [13]; inactive: 91.2% in assay [14]; inactive: 95.2% in [15]; inactive: 106% in [16]; inactive: 104% in assay [17].
In the case of `NCCc1ccc(N(CCCl)CCCl)cc1`, the growth in assay [1] is inactive: 112%; in assay [2], inactive: 39.3%; in assay [3], inactive: 51.7%; in assay [4] it was inactive: 94.7%; in [5], inactive: 19.7%; in [6], active: -13%. Further, the growth in assay [7] was inactive: 94.2%; in assay [8] it was inactive: 15.9%; in [18], inactive: 21.6%; in assay [9], inactive: 14.7%; in [10] it was active: -17.6%; in assay [11], inactive: 74%. For the same molecule, the growth in assay [12] was inactive: 42.7%; in [13] it was inactive: 93.9%; in assay [14], inactive: 84.2%; in assay [15], inactive: 75.1%; in assay [17] it was inactive: 94.5%; in assay [19] it was inactive: 111%.
In the case of `COP(=O)(OC)N(CCCl)CCCl`, the growth in [1] is inactive: 109%; in assay [2] it was inactive: 108%; in assay [3] it was inactive: 91%; in [4], inactive: 108%; in assay [5], inactive: 104%; in [6], inactive: 87.3%. The growth is inactive: 109% in [7]; inactive: 35.7% in assay [8]; inactive: 99.1% in assay [18]; inactive: 50.9% in [9]; inactive: 97.5% in [11]; inactive: 99.4% in [12]. In addition, the growth in [13] was inactive: 102%; in [14] it was inactive: 94.1%; in [15], inactive: 101%; in assay [16], inactive: 97.1%; in assay [17], inactive: 110%; in [19], inactive: 112%.
`Nc1ccc(CCCCOc2ccccc2)cc1`: the growth was inactive: 99.4% in assay [1]; inactive: 50.4% in [2]; inactive: 41.9% in [3]; inactive: 92.2% in assay [4]; inactive: 108% in assay [5]; inactive: 98.8% in assay [6]. Besides, the growth in assay [7] is inactive: 74.4%; in assay [8], inactive: 28.4%; in assay [18], inactive: 24.1%; in assay [9], inactive: 38.3%; in assay [10] it was inactive: 66.5%; in assay [11] it was inactive: 35.5%. The growth in assay [12] was inactive: 70.6%; in assay [13], inactive: 107%; in assay [14], inactive: 68.3%; in assay [15] it was inactive: 106%; in [16] it was inactive: 87.9%; in [17], inactive: 76.4%. Besides, in assay [19], the growth is inactive: 86%.
In the case of `O=C(N(CCCl)CCCl)C(Cl)(Cl)Cl`, the growth in assay [1] is inactive: 105%; in assay [2], inactive: 105%; in assay [3], inactive: 102%; in assay [4] it was inactive: 106%; in assay [5], inactive: 99.7%; in assay [6] it was inactive: 85.2%. Further, the growth is inactive: 114% in assay [7]; inactive: 107% in assay [8]; inactive: 91.5% in [9]; inactive: 96.1% in assay [10]; inactive: 103% in assay [11]; inactive: 102% in [12]. The growth was inactive: 105% in assay [13]; inactive: 91.6% in assay [14]; inactive: 114% in assay [15]; inactive: 108% in [16]; inactive: 117% in assay [17].
For `O=[As](O)(O)c1ccc(I)cc1`, the growth was inactive: 110% in assay [1]; inactive: 103% in assay [2]; inactive: 95.2% in [3]; inactive: 111% in assay [4]; inactive: 98.1% in assay [5]; inactive: 97.7% in assay [6]. The growth in [7] was inactive: 108%; in assay [8], inactive: 94.5%; in assay [9], inactive: 99.2%; in [10], inactive: 103%; in assay [11], inactive: 99.6%; in assay [12], inactive: 98.1%. The growth in assay [13] was inactive: 106%; in assay [14], inactive: 106%; in assay [15], inactive: 99.9%; in assay [16] it was inactive: 108%; in assay [17], inactive: 108%.
For the molecule `O=C(c1ccc(F)cc1)N(CCCl)CCCl`, the growth is inactive: 105% in assay [1]; inactive: 107% in assay [2]; inactive: 92.6% in [3]; inactive: 94.8% in assay [4]; inactive: 98.5% in assay [5]; inactive: 90.9% in assay [6]. Also, the growth is inactive: 108% in assay [7]; inactive: 107% in [8]; inactive: 92.5% in [9]; inactive: 98% in [10]; inactive: 102% in [11]; inactive: 100% in [12]. Moreover, the growth is inactive: 104% in assay [13]; inactive: 110% in [14]; inactive: 95.6% in assay [15]; inactive: 107% in [16]; inactive: 114% in assay [17].
In the case of `CCSC(O)C(Cl)(Cl)Cl` (configuration not stated), the growth in assay [1] is inactive: 112%; in assay [2], inactive: 103%; in assay [3] it was inactive: 82.2%; in assay [4], inactive: 114%; in assay [5], inactive: 103%; in assay [6], inactive: 97.5%. Besides, the growth in [7] is inactive: 86.7%; in assay [8], inactive: 95.3%; in assay [18], inactive: 109%; in assay [9] it was inactive: 105%; in assay [10], inactive: 99.4%; in assay [11], inactive: 100%. Further, the growth in assay [12] was inactive: 105%; in assay [13] it was inactive: 100%; in assay [14], inactive: 117%; in [15] it was inactive: 109%; in assay [16] it was inactive: 96.9%; in assay [17], inactive: 105%. In addition, the growth in [19] was inactive: 102%.
